Assay outcomes (PubChem)
Rows were chosen to be rich in hits. Some 2.2% of all compounds tested hit in one or more screens of this group.
miR-21 reporter = miR-21 reporter, rising signal | Potency, µM (highest dose often 38.3 µM), for inactives: at the highest dose reporter change, positive = more light | 340,000 tested, under 10 active | HeLa miR-21 FLuc reporter, luciferase, 48 h; active = well fitted rising curve with a large enough effect; inconclusive = small, poorly fitted or top-dose-only effect; inactive = no such curve, though single readings can be large or run the other way;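 note: % of control where 0% means no effect; miR-21 action dims this reporter so a rising signal means less miR-21 action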
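Luminescence from a firefly luciferase reporter carrying a miR-21 binding site downstream, stably expressed under a CMV promoter in HeLa cells that make miR-21 endogenously, reports miRNA modulation after 48 h compound exposure up to approximately 40uM final.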
Nrf2 activator = activators of Nrf2 (ARE) signaling; AREc32 ARE-luciferase reporter (MCF7-derived line), luminescence, 24 h; Potency, µM (series often up to 46.1 µM), inactives show top-dose activation, hits mostly activators; 410,000 tested, 0.31% active; AID 624171; note: potency is the fitted concentration of half-maximal effect; % of control where 0% means no effect; nearly all actives have a fitted effect of over 65% in size
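Steps: seed AREc32_Fluc cells (1000/well, 5% FBS OPTI-MEM); incubate overnight at 37 deg C; add 23 nL compound; incubate 24 hr; add Steady-Glo; hold 30 min RT; read luminescence.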
Nrf2 block = blocks Nrf2 signaling; Potency, µM (series often up to 46 µM), for inactives: at the top dose activity change, negative = inhibition, most hits filed as inhibitors; A549 ARE-Fluc reporter, luciferase luminescence, 18-24 h; 360,000 tested, 2.1% active; AID 504444; note: potency is the fitted concentration of half-maximal effect; % is set by controls: 0 for no effect and ±100 for the full control effect; nearly all actives have a fitted effect of over 60% in size
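Two sequential reads on A549 ARE_Fluc cells exposed to compound for 18-24 h: a CellTiter-Fluor fluorescence read for viability, then a luciferase luminescence read for Nrf2/ARE activity.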
A549 viability = counter-screen for Nrf2 inhibitors: cytotoxicity in A549 cells; 390,000 tested, 0.16% active; Potency, µM (titrated, usually from 46 µM), for the others: top-dose activity change, negative = cytotoxicity, most hits filed as inhibitors; A549 ARE-Fluc cells, CellTiter-Fluor viability, 18-24 h; AID 504648; note: potency is the fitted concentration of half-maximal effect; % is set by controls: 0 for no effect and ±100 for the full control effect
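A549 ARE_Fluc cells in 5% FBS OPTI-MEM were exposed to compounds in concentration-response for 18-24 h at 37 deg C. Viability was read by CellTiter-Fluor fluorescence (Ex 405/Em 525) after 30 min, before the luciferase read.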
GALK inhibitor = inhibitors of human galactokinase; P51570; Purified GALK, Kinase-Glo residual ATP luminescence; AID 1868; Potency, µM (doses to about 57.5 µM), for the others: at the top dose activity change, negative = inhibition, most hits filed as inhibitors; 270,000 tested, 0.007% active; note: potency is the fitted concentration of half-maximal effect; % is set by controls: 0 for no effect and ±100 for the full control effect
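Human GALK (5 nM) with 35 uM ATP and 100 uM galactose in 20 mM HEPES pH 8.0, 5 mM MgCl2, 60 mM NaCl, 1 mM DTT, 0.01% BSA. After 1 h at room temperature, leftover ATP was read by Kinase-Glo Plus luminescence.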
PI4K2A inh = blocks human PI4K2A kinase activity; 420,000 tested, 0.13% active; purified PI4K2A, ADP-Glo luminescence, 1 h; active compounds read low; activity change, negative = inhibition, % at 76.9 µM; in the data active = activity change below about -50%; inconclusive = mostly about -30% to -49%;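 note: -100% = wells without enzyme as full effect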
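ADP-Glo luminescence measured ADP generated by PI4K2A enzyme (4 ug/mL before mixing) with 1.2 mM PI substrate (pre-mix) and 300 microM ATP (pre-mix). Tris pH7.5 buffer with MgCl2, Triton X-100; 1 h reaction at ambient temperature.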
An asterisk follows results filed as active; ? = inconclusive; . = no result given. Unless noted, calls come from the whole dose curve; as a rule, active = well fitted curve in the direction sought with a large enough effect; inconclusive = small, poorly fitted or top-dose-only effect, or another doubt; inactive = no such curve, though single readings can be large; an effect the other way counts as inactive or inconclusive.

SMILES | miR-21 reporter | Nrf2 activator | Nrf2 block | A549 viability | GALK inhibitor | PI4K2A inh
Cc1ccc2nc(-c3ccc(NC(=O)COC(=O)c4ccco4)cc3)sc2c1 | 24% | 0% | 6.5µM* | 9% | 0% | 0
Cc1cc(C(=O)CSc2nc3ccc(Cl)cc3[nH]2)c(C)n1CC1CCCO1 (stereo not drawn) | 17% | 4% | 13µM* | -27% | 5% | 7
Cc1cc(C(=O)COC(=O)c2ccccc2O)c(C)n1CC1CCCO1 (stereo not drawn) | . | -2% | ? | 0% | . | -17
Cc1cc(C(=O)COc2ccccc2C(N)=O)c(C)n1CC1CCCO1 (stereo not drawn) | 20% | 1% | 4.6µM* | -14% | -2% | 4
CC(=O)N1c2ccc(S(=O)(=O)N3CCC(C(=O)Nc4cccc(F)c4)CC3)cc2CC1C (stereo not drawn) | 16% | 2% | 16µM* | -9% | 1% | 1
CC(=O)N1c2ccc(S(=O)(=O)N3CCC(C(=O)Nc4cccc(Cl)c4)CC3)cc2CC1C (stereo not drawn) | 29% | -1% | 2.1µM* | -12% | -1% | -2
CC(=O)N1c2ccc(S(=O)(=O)N3CCCC(C(=O)Nc4ccc(F)cc4)C3)cc2CC1C (stereo not drawn) | 23% | 2% | 18µM* | -10% | . | 2
O=C(Nc1cccc(F)c1)C1CCN(S(=O)(=O)c2ccc3[nH]c4c(c3c2)CCCCC4)CC1 | ? | -1% | 18µM* | -30% | . | 1
c1ccc(-c2c[nH]c3ccc(OCCN4CCOCC4)c(-c4ccccc4)c23)cc1 | . | . | . | . | . | 1
O=C(COC(=O)c1ccc(Sc2ncn[nH]2)c([N+](=O)[O-])c1)Nc1ccc(Cl)c(Cl)c1 | . | . | . | . | . | -7
CC1Cc2cc(S(=O)(=O)N3CCN(c4ccccc4F)CC3)ccc2N1C(=O)C1CC1 (stereo not drawn) | 1% | -1% | 15µM* | -8% | -6% | 5
CC1Cc2cc(S(=O)(=O)CCC(=O)Nc3ccc(Cl)cc3F)ccc2N1C(=O)C1CC1 (stereo not drawn) | 15% | 1% | 13µM* | 1% | . | -4
CCC(=O)N1c2ccc(S(=O)(=O)N3CCN(c4cc(C)ccc4C)CC3)cc2CC1C (stereo not drawn) | 3% | -1% | 16µM* | 6% | -3% | -2
Cc1cccc(NC(=O)C2CCN(S(=O)(=O)c3ccc4ccccc4c3)CC2)n1 | . | 3% | 16µM* | -14% | . | 3
Cc1cccc(NC(=O)C2CCN(S(=O)(=O)c3ccc(Cl)cc3)CC2)n1 | . | 0% | ? | -7% | . | 3
COc1cccc(N2CCN(S(=O)(=O)c3ccc4c(c3)CC(C)N4C(=O)C3CC3)CC2)c1 (stereo not drawn) | 0% | 0% | ? | -1% | -2% | 9
COc1ccc(CNC(=O)O[C@H]2CC[C@@]34CCCN3C(=O)CCC[C@H]4C2)cc1OC | . | . | . | . | . | 3
CC(=O)N1c2c(cc(Br)cc2S(=O)(=O)N2CCN(c3ccccc3F)CC2)CC1C (stereo not drawn) | 20% | -1% | 23µM* | -7% | -4% | 0
Cn1c(=O)oc2cc(S(=O)(=O)N3CCC(C(=O)N4CCN(c5ccc(Cl)cc5)CC4)CC3)ccc21 | 23% | 0% | 18µM* | 3% | . | 2
Cc1ccnc(NC(=O)C2CCN(S(=O)(=O)c3ccc4c(c3)CC(C)N4C(=O)C3CCC3)CC2)c1 (stereo not drawn) | 24% | 1% | ? | -11% | 0% | -3
CC(=O)N1c2ccc(S(=O)(=O)N3CCC(C(=O)Nc4ccc(C)cn4)CC3)cc2CC1C (stereo not drawn) | 19% | 0% | 15µM* | -10% | -3% | 0
CC1Cc2cc(S(=O)(=O)N3CCC(C(=O)Nc4ccccn4)CC3)ccc2N1C(=O)C1CCC1 (stereo not drawn) | 24% | 3% | 15µM* | -12% | -5% | 0
O=C(CN(C(=O)OCC1c2ccccc2-c2ccccc21)[C@@H](Cc1ccccc1)C(=O)O)OCc1ccc(C(=O)NCc2ccccc2)cc1 | . | . | . | . | . | -4
O=C(NCc1ccccc1Cl)C1CCC(CNS(=O)(=O)c2cccc3cccnc23)CC1 (stereo not drawn) | . | . | . | . | . | -30
CC(=O)c1cc2ccccc2s1 | . | . | . | . | . | -1
COc1ccc(NC(=O)C(OC(=O)CNC(=O)c2ccccc2)c2ccccc2)cc1Cl (stereo not drawn) | . | . | -3% | -4% | . | .
CC(=O)c1ccc(N2CCN(C(=O)C3CCN(S(=O)(=O)c4ccc5c(c4)CC(C)N5C(C)=O)CC3)CC2)cc1 (stereo not drawn) | 8% | 3% | 15µM* | -1% | -1% | 0
CCc1ccc(NC(=O)C2CCCN(S(=O)(=O)c3ccc4c(c3)CC(C)N4C(C)=O)C2)cc1 (stereo not drawn) | 30% | 4% | ? | -3% | . | -1
CCc1ccc(NC(=O)C2CCN(S(=O)(=O)c3ccc4c(c3)CC(C)N4C(C)=O)CC2)cc1 (stereo not drawn) | ? | 2% | 16µM* | -1% | . | -3
O=C1c2ccccc2C(=O)c2c1cccc2N(CCO)CCO | -14% | 1% | -8% | ? | . | -11
O=C1C=C(N(CCO)Cc2ccccc2)c2ccccc2C1=O | ? | -3% | 21µM* | 23µM* | ? | ?
CCc1c(C#N)c(SCCC(=O)Nc2ccc(F)cc2)nc2c1C(=O)CC(C)(C)C2 | 30% | 0% | 18µM* | ? | 0% | -5
N#C/C(=C\c1ccccc1[N+](=O)[O-])c1nc(C2CC2)cs1 | -18% | 10µM* | ? | -4% | 0% | 4
N#C/C(=C/c1ccccc1[N+](=O)[O-])c1nc(C2CC2)cs1 | -19% | 11µM* | ? | -1% | 0% | 8
CC1=C2NC(N)=[N+](Cc3ccc4c(c3)OCO4)CC2NOC1 (stereo not drawn) | . | . | . | . | . | -6
Cc1ccc(C)c(NC(=O)c2ccc(CS(=O)(=O)Cc3ccccc3C)o2)c1 | . | . | . | . | . | -5
Cc1ccc(-n2c(SCC(=O)Nc3ccc(S(=O)(=O)Nc4cc(C)nc(C)n4)cc3)nnc2-c2ccc(C(C)(C)C)cc2)cc1 | . | . | . | . | . | 3
CC(C)(C)n1nnnc1C(c1cccs1)N1CCN(c2ccccc2)CC1 (stereo not drawn) | -1% | 0% | 23µM* | ? | 0% | 3

Another view of part of the listing above:
> CCc1c(C#N)c(SCCC(=O)Nc2ccc(F)cc2)nc2c1C(=O)CC(C)(C)C2
  miR-21 reporter: 30%
  Nrf2 activator: 0%
  Nrf2 block: 18µM*
  A549 viability: ?
  GALK inhibitor: 0%
  PI4K2A inh: -5
> N#C/C(=C\c1ccccc1[N+](=O)[O-])c1nc(C2CC2)cs1
  miR-21 reporter: -18%
  Nrf2 activator: 10µM*
  Nrf2 block: ?
  A549 viability: -4%
  GALK inhibitor: 0%
  PI4K2A inh: 4
> N#C/C(=C/c1ccccc1[N+](=O)[O-])c1nc(C2CC2)cs1
  miR-21 reporter: -19%
  Nrf2 activator: 11µM*
  Nrf2 block: ?
  A549 viability: -1%
  GALK inhibitor: 0%
  PI4K2A inh: 8
